## Measured affinities in a library of Ab-14 light chain variants

From the AlphaSeq antibody data of Li et al. 2023 (doi:10.1038/s41467-023-39022-2), copy in the FLAb collection.

The target is the same throughout: PDVDLGDISGINAS, from the HR2 region of SARS-CoV-2 spike.

Parent scFv Ab-14: VH joined to VL by three GGGGS repeats. Changes lie in the light chain CDRs alone.
VH: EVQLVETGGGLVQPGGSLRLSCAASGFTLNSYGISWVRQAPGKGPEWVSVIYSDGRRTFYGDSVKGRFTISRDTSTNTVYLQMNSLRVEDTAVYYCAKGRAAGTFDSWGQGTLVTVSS
VL: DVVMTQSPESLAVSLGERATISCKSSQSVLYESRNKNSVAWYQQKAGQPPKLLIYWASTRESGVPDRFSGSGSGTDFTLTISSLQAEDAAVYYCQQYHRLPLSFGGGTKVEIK

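Phage display of a naive human antibody library on the peptide gave the parent. The variants were designed computationally from a first round of random CDR variants and then made and measured. Their group label is 14L_GP_HC (GP: Gaussian process model; HC: hill climbing; a sequence that several methods proposed may carry one label only). The assay is AlphaSeq: two haploid yeast populations carry antibody and antigen on their surface. The frequency of each diploid, read from paired DNA barcodes, reflects how well the two displayed proteins bind. A regression on co-assayed BCL2-family reference pairs converts the normalised counts of each replicate to an apparent Kd. The assay was run in six technical replicates.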

Each variant is given by its three light chain CDRs, as the data file delimits them; those of the parent are KSSQSVLYESRNKNSVA, WASTRES, QQYHRLPLS.
Scale: log10 of Kd in nM, estimated from mating counts; low values are strong binders.
A mean of the replicates is given; it leaves out those without a signal.
"ND" means that the variant was in the library but no mating with the target was seen in that replicate; the authors take this as a sign of poor binding, and no number exists.

CDR-L1,CDR-L2,CDR-L3,log10 Kd (nM) by replicate,"mean, log10 nM",signal with controls
FVLQSVLYESRNFNSVA,HASTRED,QQYHRLPLS,0.47 / 0.55 / 0.39 / 0.51 / 1.51 / 0.43,0.64,0/18
KLSMSTLYESRNKNSVA,WASTRES,QQYHRLPLS,1.11 / 0.62 / 0.29 / 0.51 / 0.74 / 0.87,0.69,1/18 (2.27)
KLVNSTLYESRQKNSVA,QASTRES,QQYHRLPLS,1.10 / 0.88 / 1.13 / 0.76 / 1.15 / 1.21,1.04,4/18 (3.03)
KCSQSVLYEKRNKNSVA,DASTRES,QQYHRLPLS,0.33 / 0.33 / 0.36 / 0.34 / 0.12 / 0.51,0.33,0/18
KSSQSVGMESRNKNSVA,DASTRES,QQYHRLPLS,-0.07 / 0.18 / -0.22 / -0.34 / -0.29 / 0.00,-0.12,0/18
KMSQGWLYESRNKNSVA,GASTRED,QQYHRLPLS,-0.39 / -0.22 / -0.18 / -0.44 / -0.36 / -0.21,-0.30,0/18
KVSQSQLYESRNFWSVA,NASTRES,QQYHRLPLS,0.35 / 0.27 / 0.05 / 0.15 / 0.17 / 0.31,0.21,0/18
KSSQGVLYQSRNKNSVA,GASTRES,QQYHRLPLS,0.01 / 0.19 / -0.02 / -0.23 / -0.16 / 0.17,-0.01,0/18
KQSYSVLQESRNKNSVA,DASTRES,QQYHRLPLS,-0.09 / -0.19 / -0.28 / -0.40 / -0.24 / -0.23,-0.24,0/18
KQSGSVLQESRNKNSVA,DASTRES,QQYHRLPLS,0.06 / 0.00 / -0.39 / -0.33 / -0.22 / -0.08,-0.16,4/18 (2.69)
KVRQSQLYESRNKNSVA,NASTRES,QQYHRLPLS,0.74 / 0.19 / 0.10 / 0.51 / 0.38 / 0.33,0.38,0/18
KISISYLEESRNKNSVA,EASTRES,QQYHRLPLS,1.06 / 1.16 / ND / 1.02 / 1.55 / 1.22,1.20,1/18 (1.37)
KLQQSTLYESRNQNSVA,NASTRES,QQYHRLPLS,0.85 / 0.78 / 0.67 / 0.55 / 1.30 / 0.65,0.80,1/18 (2.23)
KSLQSWLYESRNKNSVA,HASTRED,QQYHRLPLS,1.61 / 1.32 / 0.94 / 0.97 / 1.49 / 1.20,1.25,1/18 (2.75)
KSSQSVLPEPRNKNSVA,DASTRES,QQYHRLPLS,0.24 / -0.18 / -0.42 / -0.60 / -0.46 / -0.26,-0.28,0/18
KSSGSYLYESRNKNSVA,AASTRES,QQYHRLPLS,0.99 / 1.76 / 0.75 / 0.87 / 0.68 / 2.43,1.25,1/18 (1.62)
KSSQSELSESRNKNSVA,DASTRES,QQYWRLPLS,-0.13 / -0.20 / -0.06 / -0.51 / -0.11 / -0.08,-0.18,0/18
KSSQSVLMESRNKNSVA,DASTRLS,QQYHRLPLS,0.20 / 0.20 / 0.08 / 0.02 / 0.15 / 0.20,0.14,0/18
KLSQSDLYESRNKNSVA,DASTRES,YQYHRLPSS,ND / ND / ND / ND / ND / ND,ND,0/18
KLSISYLIESRNKNSVA,EASTRES,QQYHRLPLS,0.29 / 0.45 / 0.11 / 0.06 / 0.35 / 0.53,0.30,0/18
KLRQSTLYESRNQNSVA,EASTRES,QQYHRLPLS,0.35 / 0.13 / 0.26 / 0.10 / 0.29 / 0.09,0.20,0/18
KSSQSFLYESRNKNSVA,GASQRES,QQYHRLPLS,0.15 / -0.19 / -0.22 / -0.27 / -0.29 / 0.03,-0.13,1/18 (2.76)
RQSQSVLYESRNKNSVA,DASTRES,QQYHRLPLS,-0.10 / -0.10 / -0.36 / -0.16 / -0.20 / -0.11,-0.17,0/18
RLMQSVLYESRNKNSVA,HASLRED,QQYHRLPLS,-0.02 / -0.20 / -0.19 / -0.09 / 0.00 / -0.17,-0.11,0/18
KSSWSQLYESGNKNSVA,HASTRED,QQYHRLPLS,0.25 / -0.02 / 0.14 / -0.02 / -0.04 / 0.18,0.08,2/18 (3.03)
KVSQSQLYESRNKNSVA,GASTRES,QQYHRLTLS,ND / ND / ND / ND / ND / ND,ND,0/18
KYSQSWLYESRNFWSVA,GASTRES,QQYHRLPLS,0.54 / 0.31 / 0.26 / 0.49 / 0.92 / 0.60,0.52,0/18
KSSMSVLFQSRNKNSVA,DASTRES,QQYHRLPLS,1.02 / 0.67 / -0.08 / 0.26 / 0.05 / 0.94,0.48,0/18
KSYISWLYESRNKNSVA,EASTRES,QQYHRLPLS,-0.28 / -0.48 / -0.09 / -0.35 / -0.28 / -0.03,-0.25,0/18
KSSQSVLYEPRNKNSVA,DASTRES,QQYHRLPLS,0.17 / -0.09 / -0.10 / -0.12 / -0.07 / 0.12,-0.02,1/18 (2.14)
KISQSVLNESRNKNSVA,DASTRES,QQYHRLPLS,0.03 / -0.06 / 0.03 / -0.41 / -0.25 / 0.20,-0.08,0/18
KSSLSYLYESRNTNSVA,EASTRES,QQYHRLPLS,0.00 / -0.06 / 0.35 / 0.30 / -0.01 / -0.21,0.06,0/18
KSSMSVKFESRNKNSVA,DASTRES,QQYHRLPLS,0.58 / -0.01 / -0.04 / -0.09 / 0.00 / 0.15,0.10,0/18
KESQSVLFEDRNKNSVA,DASTRES,QQYHRLPLS,-0.39 / 0.53 / -0.25 / 0.20 / 0.09 / 1.25,0.24,0/18
KQSQSVLPESRNKNSVA,DASTRES,QQYHRLPLS,0.50 / 0.73 / 0.44 / 0.68 / 0.39 / 1.02,0.63,0/18
KIPQGVLYESRNKNSVA,GASTRES,QQYHRLPLS,-0.01 / -0.08 / -0.27 / -0.24 / -0.27 / -0.10,-0.16,1/18 (4.11)
KFSQSVLYESRMKNSVA,NASTRES,QWYHRLPLS,0.63 / 0.48 / 0.52 / 0.81 / 0.84 / 0.85,0.69,1/18 (3.65)
KMSQSVKMESRNKNSVA,DASTRES,QQYHRLPLS,0.05 / 0.03 / -0.05 / -0.08 / -0.01 / 0.03,-0.01,1/18 (3.19)
KVVQSWLYESRNKNSVA,GASTRES,QQYHRLPLI,0.62 / 0.67 / 0.61 / 0.30 / 0.20 / 0.77,0.53,0/18
KQSQSVLYESRNKNAVA,DASTRES,QDYHWLPLS,1.73 / 1.50 / 2.17 / 2.61 / 1.96 / 2.44,2.07,0/18
KFSQSVLYESRTKNSVA,DASTRES,QQYHQLPLS,0.41 / 0.42 / 0.21 / 0.15 / 0.62 / 0.51,0.39,2/18 (2.86)
KSSQSVLMESRNKNSVA,DASTRES,QQYHRLPLS,0.13 / -0.23 / -0.32 / -0.23 / -0.31 / 0.07,-0.15,0/18

The range of this assay differs from that of the first round, and the authors advise against merging the two.
Of ten entries with the parent sequence, four were seen in most replicates (averages 0.34 to 2.37), three in one and three in none, so single entries are noisy.
The authors averaged sequences with at least three values out of six and counted those with two or fewer as poor binders.
Empty control strains, which show no peptide, gave a signal in 4% of pairings with all light chain designs; the median was 2.64 and 95% of these signals were weaker than 1.59. No background was subtracted. Also given: how often the same scFv was detected with the empty control strains, with their mean in brackets.